Calls of active or inactive are those of the source. The calls are words filed in the database; no cut-off is given here.

Assay [1] deals with T1, Protein ENL (Homo sapiens) (UniProt Q03111).
T1 sequence (whole entry): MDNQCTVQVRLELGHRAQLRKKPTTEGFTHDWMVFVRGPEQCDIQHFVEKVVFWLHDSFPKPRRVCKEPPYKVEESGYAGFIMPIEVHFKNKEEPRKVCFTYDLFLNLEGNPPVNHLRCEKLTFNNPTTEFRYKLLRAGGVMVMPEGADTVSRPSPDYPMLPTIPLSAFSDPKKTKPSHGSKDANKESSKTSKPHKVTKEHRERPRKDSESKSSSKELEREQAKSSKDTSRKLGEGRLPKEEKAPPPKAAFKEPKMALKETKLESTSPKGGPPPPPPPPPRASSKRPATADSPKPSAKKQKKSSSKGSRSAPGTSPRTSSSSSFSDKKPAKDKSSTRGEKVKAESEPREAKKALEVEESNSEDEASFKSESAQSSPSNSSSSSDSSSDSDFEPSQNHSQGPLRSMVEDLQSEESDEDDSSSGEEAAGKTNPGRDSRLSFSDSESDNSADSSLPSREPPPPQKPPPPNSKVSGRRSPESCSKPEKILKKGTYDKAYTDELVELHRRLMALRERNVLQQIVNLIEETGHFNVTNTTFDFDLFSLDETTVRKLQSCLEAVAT
The settings on record: dose 333.0 nM, time 45.0 min.

Assay [2] deals with T1, Protein ENL (Homo sapiens). The note with it: dose 111.0 nM, time 45.0 min.

`C[C@H]1CCCN1Cc1nc2cc(NC(=O)c3ccc4c(cnn4C4CCCC4)c3)ccc2[nH]1` returned an inhibition in assay [1] of 40.6%. Further, the inhibition result in assay [2] was “inactive”.

Regarding `C[C@H]1CCCN1Cc1nc2cc(NC(=O)c3ccc4[nH]c(=O)c5ccc(F)cc5c4c3)ccc2[nH]1`, the inhibition in assay [1] came to 55.4%; in assay [2], 22.4%.

Take `C[C@H]1CCCN1Cc1nc2cc(NC(=O)c3ccc4c(cnn4CCN4C5COC(c6ccccc6)OC5C5OC(c6ccccc6)OCC54)c3)ccc2[nH]1` (stereo partly specified): the inhibition entry in assay [1] is “inactive”. In assay [2], this compound yielded an inhibition of 14.6%.

For the compound `C[C@H]1CCCN1Cc1nc2cc(NC(=O)c3ccc4c(cnn4CCNC(=O)Nc4ccc(C(C)(C)C)cc4)c3)ccc2[nH]1`, the inhibition in assay [1] is 78.9%; in assay [2], 33.8%.

For the compound `C[C@H]1CCCN1Cc1nc2cc(NC(=O)c3cccc4c3c3ccccc3c(=O)n4C)ccc2[nH]1`, the inhibition in assay [1] was 39.9%. Moreover, the inhibition entry in assay [2] was “inactive”.

On to `C[C@H]1CCCN1Cc1nc2cc(NC(=O)c3ccc4c(c3)[nH]c3ccccc34)ccc2[nH]1`, for which the inhibition worked out at 98.2% in assay [1] and 48.9% in assay [2].

For the compound `Cc1noc(C)c1-c1ccc(C(=O)Nc2ccc3[nH]c(CN4CCC[C@@H]4C)nc3c2)cc1`, the inhibition in assay [1] worked out at 77.7%; in assay [2] it was 12.8%.

For `C[C@H]1CCCN1Cc1nc2cc(NC(=O)c3ccc4c(cnn4CCNC(=O)OC(C)(C)C)c3)ccc2[nH]1`, the inhibition in assay [1] was 82.4%. Moreover, the inhibition entry in assay [2] is “inactive”.
